Here are results for one compound from patent US8580321B2, “Method for reducing the effects of chemotherapy using flagellin related polypeptides” (priority 2003, dated 2013).

The test system of this data set is NIH Swiss mice treated with cisplatinum.

As for `N.N.[Cl][Pt][Cl]` [cisplatinum, reference compound], the “mice surviving past Day 13, cisplatinum alone” value (10 mg/kg i.p.) is reported as “no mice out of 11”. The “behavioral changes, cisplatinum with PBS” value (FIG. 39D) is listed as “limited mobility”.
